Biological target: Mitogen-activated protein kinase kinase kinase kinase 1 (Mus musculus) (UniProt P70218)
Conditions: Balb/c, dose 10-30 mg/kg, route po, time 6.0 hrs

The chains behind the UniProt entries cited, without tags or fusion partners.
UniProt P70218, whole entry: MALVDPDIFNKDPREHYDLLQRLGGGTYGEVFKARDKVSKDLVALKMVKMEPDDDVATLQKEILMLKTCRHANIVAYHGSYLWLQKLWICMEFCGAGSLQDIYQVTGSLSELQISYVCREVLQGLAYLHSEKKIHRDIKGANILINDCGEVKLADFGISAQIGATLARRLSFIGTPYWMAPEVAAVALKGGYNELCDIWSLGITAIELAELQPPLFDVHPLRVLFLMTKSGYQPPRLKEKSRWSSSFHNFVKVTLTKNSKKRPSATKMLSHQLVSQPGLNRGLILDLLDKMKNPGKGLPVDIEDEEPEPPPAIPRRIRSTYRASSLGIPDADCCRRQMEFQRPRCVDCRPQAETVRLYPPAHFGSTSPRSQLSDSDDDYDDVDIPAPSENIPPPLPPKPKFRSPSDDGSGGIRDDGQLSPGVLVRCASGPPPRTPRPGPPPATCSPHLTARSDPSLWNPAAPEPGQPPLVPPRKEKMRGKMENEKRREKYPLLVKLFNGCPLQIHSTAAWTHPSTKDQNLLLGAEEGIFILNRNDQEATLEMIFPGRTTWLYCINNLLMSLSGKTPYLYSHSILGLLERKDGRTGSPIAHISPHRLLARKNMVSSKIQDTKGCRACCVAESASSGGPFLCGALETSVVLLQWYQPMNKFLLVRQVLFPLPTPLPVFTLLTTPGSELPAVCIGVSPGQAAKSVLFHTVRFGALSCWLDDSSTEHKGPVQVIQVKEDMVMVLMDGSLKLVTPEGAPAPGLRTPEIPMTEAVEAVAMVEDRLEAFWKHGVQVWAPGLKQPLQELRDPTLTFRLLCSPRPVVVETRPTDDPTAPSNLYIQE

Q: How did the inhibition turn out when `COc1cc(Nc2ccc3c(n2)CN(C)C32CCN(C3COC3)CC2)c(C(N)=O)nc1-c1cccc2c1ncn2C` was run?
A: > 50%

— ChEMBL document CHEMBL6074671, “Discovery of Pyridine-2-Carboxamides Derivatives as Potent and Selective HPK1 Inhibitors for the Treatment of Cancer” (J Med Chem, 2024)
